Here are results for 16 compounds from patent US20260382689A1, “METHODS OF PREVENTING AND/OR TREATING SIDE EFFECTS ASSOCIATED WITH ANTI-CANCER AGENTS USING NON-NATURALLY OCCURRING MELANOCORTIN ANALOGS WITH ANTI-GDF-15 ANTIBODIES” (published 2026).

Sequences of proteins named here, by UniProt entry; tags and fusion partners are left off.
UniProt Q01726, whole entry: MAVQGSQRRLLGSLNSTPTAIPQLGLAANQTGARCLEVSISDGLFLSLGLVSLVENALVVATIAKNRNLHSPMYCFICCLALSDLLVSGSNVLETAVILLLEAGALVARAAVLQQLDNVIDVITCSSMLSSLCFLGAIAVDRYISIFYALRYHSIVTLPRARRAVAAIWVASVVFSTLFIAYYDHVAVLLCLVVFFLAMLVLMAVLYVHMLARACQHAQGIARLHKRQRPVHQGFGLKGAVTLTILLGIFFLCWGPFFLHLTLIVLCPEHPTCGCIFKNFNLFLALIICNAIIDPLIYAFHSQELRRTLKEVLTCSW
UniProt P33032, whole entry: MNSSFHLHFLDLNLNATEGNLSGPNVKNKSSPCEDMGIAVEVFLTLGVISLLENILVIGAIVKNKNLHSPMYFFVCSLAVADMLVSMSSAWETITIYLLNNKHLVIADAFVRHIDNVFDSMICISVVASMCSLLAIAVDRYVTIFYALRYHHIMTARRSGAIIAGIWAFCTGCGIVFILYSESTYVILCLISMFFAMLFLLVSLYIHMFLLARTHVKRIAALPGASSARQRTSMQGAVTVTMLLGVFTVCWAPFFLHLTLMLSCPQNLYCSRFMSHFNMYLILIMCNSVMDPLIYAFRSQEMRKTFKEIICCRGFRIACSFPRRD
UniProt P41968, whole entry: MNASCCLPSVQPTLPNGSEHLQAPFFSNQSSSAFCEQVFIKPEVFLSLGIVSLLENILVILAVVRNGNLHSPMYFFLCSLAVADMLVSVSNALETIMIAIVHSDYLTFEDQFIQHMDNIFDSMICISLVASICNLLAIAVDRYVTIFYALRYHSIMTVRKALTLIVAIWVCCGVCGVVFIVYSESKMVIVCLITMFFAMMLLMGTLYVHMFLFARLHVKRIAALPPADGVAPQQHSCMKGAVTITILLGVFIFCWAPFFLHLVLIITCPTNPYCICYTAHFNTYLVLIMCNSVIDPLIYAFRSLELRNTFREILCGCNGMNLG
UniProt P32245, whole entry: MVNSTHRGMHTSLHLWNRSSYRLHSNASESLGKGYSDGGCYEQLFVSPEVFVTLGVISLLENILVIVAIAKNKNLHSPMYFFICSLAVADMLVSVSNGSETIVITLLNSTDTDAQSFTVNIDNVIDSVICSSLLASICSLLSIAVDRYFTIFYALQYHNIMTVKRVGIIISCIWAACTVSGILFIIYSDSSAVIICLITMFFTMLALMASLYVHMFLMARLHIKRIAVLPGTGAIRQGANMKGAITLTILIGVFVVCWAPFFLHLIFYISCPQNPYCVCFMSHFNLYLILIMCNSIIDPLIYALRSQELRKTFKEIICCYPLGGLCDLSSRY

By EC50 is commonly meant the concentration at which the effect is half-maximal. The IC50 is the point on the concentration scale where inhibition reaches its midpoint. Higher therefore signals weaker potency in that assay.

Test [1] addresses melanocortin 1 receptor (MC1R) (Homo sapiens, UniProt Q01726). Nature of the test: cAMP accumulation assay (HTRF), agonist and/or antagonist activity at MC1R (Example 1, Table 11). The conditions noted are these: dose-response; for EC50: cAMP. On the technique in general: Cyclic AMP is a second messenger, typically raised through Gs and lowered through Gi signalling.
The target in test [2] is melanocortin 5 receptor (MC5R) (Homo sapiens, UniProt P33032). Nature of the test: cAMP accumulation assay (HTRF), agonist and/or antagonist activity at MC5R (Example 1, Table 14). Conditions: dose-response against MC5R.
Test [3] deals with human melanocortin 3 receptor (MC3R) (Homo sapiens, UniProt P41968). As to the kind of experiment: cAMP accumulation assay (HTRF), antagonist and/or agonist activity at MC3R (Example 1, Table 12, FIGS. 1-4). The conditions noted are these: MC3R, antagonist activity, dose-response; for IC50: cAMP.
The target of test [4] is human melanocortin 4 receptor (MC4R) (Homo sapiens, UniProt P32245). Nature of the test: cAMP accumulation assay (HTRF), antagonist and/or agonist activity at MC4R (Example 1, Table 13, FIGS. 5-8). Conditions: Table 13, dose-response against MC4R, cAMP.

Each structure is given as a SMILES string.

Regarding `CCCC[C@H](NC(C)=O)C(=O)N[C@H]1CC(=O)NCCCC[C@@H](C(=O)N[C@@H](C(=O)N2CCC[C@@H]2C(N)=O)C(C)C)NC(=O)[C@H](Cc2ccccc2)NC(=O)[C@H](CCCNC(=N)N)NC(=O)[C@@H](Cc2ccc3ccccc3c2)NC(=O)[C@@H]2CCCN2C1=O`, the EC50 amounted to 16 nM in test [1] and 8.8 nM in test [2]. This compound also yielded an IC50 in test [3] of 2.5 nM.
Turning to `CCCC[C@H](NC(C)=O)C(=O)N[C@@H]1CSSC(C)(C)[C@@H](C(=O)N[C@@H](C(=O)N2CCC[C@@H]2C(N)=O)C(C)C)NC(=O)[C@H](Cc2c[nH]c3ccccc23)NC(=O)[C@H](CCCNC(=N)N)NC(=O)[C@@H](Cc2ccc3ccccc3c2)NC(=O)[C@@H]2CCCN2C1=O`, the 50% effective concentration (EC50) in test [1] is 3.5 nM; in test [2], 0.35 nM. For the same compound, the IC50 in test [3] was determined as 2.75 nM; in test [4] it was 23 nM.
`CCCC[C@H](NC(C)=O)C(=O)N[C@@H]1C(=O)N2CCC[C@H]2C(=O)N[C@H](Cc2ccc3ccccc3c2)C(=O)N[C@@H](CCCNC(=N)N)C(=O)N[C@@H](Cc2c[nH]c3ccccc23)C(=O)N[C@H](C(=O)N[C@@H](C(=O)N2CCC[C@@H]2C(N)=O)C(C)C)CSSC1(C)C`: the EC50 in test [1] was determined as 76 nM; in test [2], 7.6 nM. In addition, the figures for the half-maximal inhibitory concentration (IC50) in test [3] and in test [4] were 8.66 nM and 85 nM, respectively.
The matching figures for `CCCC[C@H](NC(C)=O)C(=O)N[C@H]1CC(=O)NCCCC[C@@H](C(=O)N[C@H](CC(=O)O)C(=O)N2CCC[C@@H]2C(N)=O)NC(=O)[C@H](Cc2c[nH]c3ccccc23)NC(=O)[C@H](CCCNC(=N)N)NC(=O)[C@@H](Cc2ccc3ccccc3c2)NC(=O)[C@@H]2CCCN2C1=O`: 27 nM, 0.15 nM, 3.49 nM and 30 nM.
The matching figures for `CCCC[C@H](NC(C)=O)C(=O)N[C@H]1CC(=O)NCCCC[C@@H](C(=O)N[C@@H](C(=O)N2CCC[C@@H]2C(N)=O)C(C)C)NC(=O)[C@H](Cc2c[nH]c3ccccc23)NC(=O)[C@H](CCCNC(=N)N)NC(=O)[C@@H](Cc2ccc3ccccc3c2)NC(=O)CCNC1=O`: over 1000 nM, 270 nM, over 1000 nM and over 1000 nM.
For the compound `CCCC[C@H](NC(C)=O)C(=O)N[C@@H](Cc1ccccc1)C(=O)N[C@@H](Cc1ccccc1)C(=O)N[C@H]1CC(=O)NCCCC[C@@H](C(=O)N[C@@H](C(=O)N2CCC[C@@H]2C(N)=O)C(C)C)NC(=O)[C@H](Cc2c[nH]c3ccccc23)NC(=O)[C@H](CCCNC(=N)N)NC(=O)[C@@H](Cc2ccc3ccccc3c2)NC(=O)[C@H](Cc2c[nH]cn2)NC(=O)[C@H](Cc2ccccc2)NC1=O`, in test [1], the “Hill Coefficient” value was 1.79, the Top worked out at 99.27% and the half-maximal effective concentration (EC50) turned out to be 30.3 nM. Besides, in test [2], the 50% effective concentration (EC50) came to 85.4 nM and the “Hill Coefficient” value was determined as 5.39. For the same compound, in test [3], the “Hill Coefficient” value is listed as 1.58, the Top was 100.22% and the half-inhibitory concentration (IC50) amounted to 252 nM. In test [4], the “Hill Coefficient” value was 6.69 and the half-inhibitory concentration (IC50) stood at 102 nM. Further, in test [4] (top of curve), the “Top (%)” value worked out at 98.98%.
Turning to `CCCC[C@H](NC(C)=O)C(=O)N[C@@H]1CSSC[C@H](C(=O)N[C@@H](C(=O)N2CCC[C@@H]2C(N)=O)C(C)C)NC(=O)[C@H](Cc2c[nH]c3ccccc23)NC(=O)[C@H](CCCNC(=N)N)NC(=O)[C@@H](Cc2ccc3ccccc3c2)NC(=O)[C@@H]2CCCN2C1=O`, the EC50 in test [1] worked out at 4.1 nM; in test [2] it was 0.51 nM.
The matching figures for `CCCC[C@H](NC(C)=O)C(=O)N[C@H]1CC(=O)NCCCC[C@@H](C(=O)N[C@@H](C(=O)N2CCC[C@@H]2C(N)=O)C(C)C)NC(=O)[C@H](Cc2ccc(O)cc2)NC(=O)[C@H](CCCNC(=N)N)NC(=O)[C@@H](Cc2ccc3ccccc3c2)NC(=O)[C@@H]2CCCN2C1=O`: 780 nM and 590 nM.
Turning to `CC(=O)N[C@@H](C(=O)N[C@H]1CC(=O)NCCCC[C@@H](C(=O)N[C@@H](C(=O)N2CCC[C@@H]2C(N)=O)C(C)C)NC(=O)[C@H](Cc2c[nH]c3ccccc23)NC(=O)[C@H](CCCNC(=N)N)NC(=O)[C@@H](Cc2ccc3ccccc3c2)NC(=O)[C@@H]2CCCN2C1=O)C(C)(C)C`, the EC50 was over 1000 nM in test [1] and 3.9 nM in test [2].
With `CC(=O)N[C@@H](C)C(=O)N[C@H]1CC(=O)NCCCC[C@@H](C(=O)N[C@@H](C(=O)N2CCC[C@@H]2C(N)=O)C(C)C)NC(=O)[C@H](Cc2c[nH]c3ccccc23)NC(=O)[C@H](CCCNC(=N)N)NC(=O)[C@@H](Cc2ccc3ccccc3c2)NC(=O)[C@@H]2CCCN2C1=O`, the values for the 50% effective concentration (EC50) in test [1] and in test [2] were over 1000 nM and 8.8 nM, respectively.
`CCCC[C@H](NC(C)=O)C(=O)N[C@H]1CC(=O)NCCCC[C@@H](C(=O)N[C@@H](C(=O)N2CCC[C@@H]2C(N)=O)C(C)(C)C)NC(=O)[C@H](Cc2c[nH]c3ccccc23)NC(=O)[C@H](CCCNC(=N)N)NC(=O)[C@@H](Cc2ccc3ccccc3c2)NC(=O)[C@H](Cc2c[nH]cn2)NC(=O)[C@H](Cc2ccccc2)NC1=O`: in test [1], the “Hill Coefficient” value is recorded as 1.33, the Top is reported as 100.99% and the EC50 was 1.43 nM. Also, in test [2], the EC50 was 2.97 nM and the “Hill Coefficient” value was 1.13. Further, in test [2] (top of curve), the “Top (%)” value stood at 99.79%.
As for `CCCC[C@H](NC(C)=O)C(=O)N[C@H]1CC(=O)NCCCC[C@@H](C(=O)N[C@@H](C(=O)N2CCC[C@@H]2C(N)=O)C(C)C)NC(=O)[C@H](Cc2c[nH]c3ccccc23)NC(=O)[C@H](CCCNC(=N)N)NC(=O)[C@@H](Cc2ccc3ccccc3c2)NC(=O)CNC(=O)CNC1=O`, the EC50 in test [1] and in test [2] was over 1000 nM in each case. In addition, the IC50 in test [3] was over 1000 nM.
In the case of `CC(=O)N[C@H](C(=O)N[C@H]1CC(=O)NCCCC[C@@H](C(=O)N[C@@H](C(=O)N2CCC[C@@H]2C(N)=O)C(C)C)NC(=O)[C@H](Cc2c[nH]c3ccccc23)NC(=O)[C@H](CCCNC(=N)N)NC(=O)[C@@H](Cc2ccc3ccccc3c2)NC(=O)[C@@H]2CCCN2C1=O)C(C)(C)C`, the EC50 in test [1] came to 12 nM; in test [2], 11 nM.
As for `CCCC[C@H](NC(C)=O)C(=O)N[C@@H]1C(=O)N2CCC[C@H]2C(=O)N[C@H](Cc2ccc3ccccc3c2)C(=O)N[C@@H](CCCNC(=N)N)C(=O)N[C@@H](Cc2c[nH]c3ccccc23)C(=O)N[C@@H](C(=O)N[C@@H](C(=O)N2CCC[C@@H]2C(N)=O)C(C)C)CSSC1(C)C`, the EC50 in test [1] is over 1000 nM; in test [2], 47 nM. This compound also displayed an IC50 in test [3] of over 1000 nM.
On to `CCCC[C@H](NC(C)=O)C(=O)N[C@H]1CSSC[C@H](C(=O)N[C@@H](C(=O)N2CCC[C@@H]2C(N)=O)C(C)C)NC(=O)[C@H](Cc2c[nH]c3ccccc23)NC(=O)[C@H](CCCNC(=N)N)NC(=O)[C@@H](Cc2ccc3ccccc3c2)NC(=O)[C@@H]2CCCN2C1=O`, for which the concentration for a half-maximal effect (EC50) in test [1] was determined as 110 nM; in test [2], 26 nM.
The like results for `CCCC[C@H](NC(C)=O)C(=O)N[C@H]1CC(=O)NCCCC[C@@H](C(=O)N[C@@H](C(=O)N[C@@H](CC(N)=O)C(N)=O)C(C)C)NC(=O)[C@H](Cc2c[nH]c3ccccc23)NC(=O)[C@H](CCCNC(=N)N)NC(=O)[C@@H](Cc2ccc3ccccc3c2)NC(=O)[C@@H]2CCCN2C1=O` were, in that order, 10 nM and 0.79 nM.
